{
  "sequences": {"note": "The chains behind the UniProt entries cited, without tags or fusion partners.", "UniProt P30411, whole entry": "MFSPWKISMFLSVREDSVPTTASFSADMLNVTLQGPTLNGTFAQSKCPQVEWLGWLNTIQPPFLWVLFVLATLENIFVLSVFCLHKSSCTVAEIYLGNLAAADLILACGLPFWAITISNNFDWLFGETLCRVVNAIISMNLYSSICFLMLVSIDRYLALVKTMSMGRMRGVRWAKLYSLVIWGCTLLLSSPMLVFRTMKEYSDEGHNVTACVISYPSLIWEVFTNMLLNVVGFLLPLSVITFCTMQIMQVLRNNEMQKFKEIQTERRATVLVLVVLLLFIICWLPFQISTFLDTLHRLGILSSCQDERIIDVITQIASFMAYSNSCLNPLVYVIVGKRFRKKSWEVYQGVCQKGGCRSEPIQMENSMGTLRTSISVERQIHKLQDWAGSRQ", "UniProt P32299, whole entry": "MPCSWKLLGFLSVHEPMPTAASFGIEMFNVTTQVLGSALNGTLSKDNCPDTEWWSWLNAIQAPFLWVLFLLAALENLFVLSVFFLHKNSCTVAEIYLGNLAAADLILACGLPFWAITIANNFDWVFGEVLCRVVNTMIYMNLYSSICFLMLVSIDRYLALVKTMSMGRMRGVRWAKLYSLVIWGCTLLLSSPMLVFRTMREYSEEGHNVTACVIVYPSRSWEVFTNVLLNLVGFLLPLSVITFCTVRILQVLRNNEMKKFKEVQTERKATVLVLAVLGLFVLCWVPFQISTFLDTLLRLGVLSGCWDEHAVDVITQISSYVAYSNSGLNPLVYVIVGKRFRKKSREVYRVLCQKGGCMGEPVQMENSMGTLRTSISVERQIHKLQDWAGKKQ"},
  "source": "patent US11278504B1",
  "about": "“Treatment of a lionfish sting and formulations for use thereof” (priority 2019, dated 2022)",
  "key": {"bradykinin B2 receptor": {"target": "T1, bradykinin B2 receptor (Homo sapiens, UniProt P30411)", "T1 construct": "Proportion of HEK293T cells responding to BK alone and in the presence of HOE-140; endogenous in cells; host or cells: HEK293T", "assay": "Fura-2 calcium imaging in HEK293T cells, bradykinin B2 receptor antagonist test", "type": "cell-based", "details": "HOE-140 1 mM"}, "[1]": {"target": "T2, bradykinin (BK) receptors (Mus musculus, UniProt P32299)", "T2 construct": "venom-elicited behavioral and cellular responses are independent of the TRPV1 or bradykinin (BK) receptors; from tissue; host or cells: living C57BL/6 mice (whole animal, behavioural read-out)", "assay": "Venom-induced spontaneous pain behavior in mice pretreated with HOE-140", "type": "in vivo", "details": "0.1 μmol/kg intraperitoneal; 44 μg venom intraplantar; P=0.067 vs saline"}},
  "data": [
    {"substance": "HOE-140", "values": [
      {"measurement": "Proportion of HEK293T cells responding to BK in the presence of HOE-140", "setting": "bradykinin B2 receptor; BK 100 μM", "value": "0/85"},
      {"measurement": "effect on BK-elicited rise in intracellular calcium (sample traces)", "setting": "bradykinin B2 receptor; BK 100 μM", "value": "reversible blockade"},
      {"measurement": "proportion of HEK293T cells responding to the venom in the presence of HOE-140", "setting": "bradykinin B2 receptor; Fisher exact test P=0.939", "value": "66/85"},
      {"measurement": "venom-elicited spontaneous pain behavior over 1 hour after HOE-140 pretreatment", "setting": "[1]", "value": "independent"}
    ]}
  ]
}
